# Antibody variant affinities, Ab-14 light chain, assay 1

Source: Engelhart et al. 2022 (doi:10.1038/s41597-022-01779-4), MIT Lincoln Laboratory and A-Alpha Bio; data file from the FLAb repository.

All variants were tested on one target, the spike HR2 peptide PDVDLGDISGINAS (SARS-CoV-2).

Ab-14 is the parent antibody, in scFv form: VH, then a 15-residue (Gly4Ser)3 linker, then VL. The heavy chain is unchanged in all variants.
VH: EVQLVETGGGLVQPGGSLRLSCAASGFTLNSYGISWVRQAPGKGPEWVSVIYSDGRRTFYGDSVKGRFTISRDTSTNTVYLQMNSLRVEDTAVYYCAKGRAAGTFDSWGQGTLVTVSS
VL: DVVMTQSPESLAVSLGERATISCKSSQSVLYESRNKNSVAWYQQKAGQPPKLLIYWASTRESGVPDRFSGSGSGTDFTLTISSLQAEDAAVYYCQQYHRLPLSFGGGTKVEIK

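The starting antibody came from a phage panning campaign against this peptide. Variants in AAYL50 differ from the parent at up to three CDR positions; double and triple changes were sampled at random. The scFvs were displayed on barcoded MATa yeast, the peptide on MATalpha yeast. Binding brings cells together so that they mate, and sequencing counts the barcode pairs among the diploids. A regression on co-assayed BCL2-family reference pairs converts the normalised counts of each replicate to an apparent Kd. There are three technical replicates.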

Changes read parent residue, position, new residue, counted from the first residue of the VL shown.
Scale: log10 of Kd in nM, estimated from mating counts; low values are strong binders.
A mean of the replicates is given; it leaves out those without a signal.
Where no diploid with the target was found in that replicate, the entry reads "ND": below detection, most likely a poor binder, though not proof of it.
In this assay the parent's reference entry averaged 0.65; its copy inside this library read 1.68.
Empty control strains, which show no peptide, gave a signal in 18% of pairings with library AAYL50; the median was 4.19 and 95% of these signals were weaker than 2.99. No background was subtracted. Also given: how often the same scFv was detected with the empty control strains.

Variant Q27P+V29A+L102D showed ND, ND, ND (controls 3 of 9).
Variant L30P+V39S+S58P showed ND, ND, 2.47 (controls 0 of 9).
Variant Q27D+E61T+S62H showed 1.76, 1.55, 2.09 (mean 1.80; controls 1 of 9).
Variant K24A+E32I+Q96N showed ND, ND, ND (controls 1 of 9).
Variant S25Q+S28I+K36T showed ND, ND, ND (controls 1 of 9).
Variant V29E+Y31F+S58M showed 1.69, 1.45, 1.60 (mean 1.58; controls 4 of 9).
Variant K24N+S26I+H98M showed ND, ND, ND (controls 0 of 9).
Variant A40P+Q96M+H98W showed ND, ND, 5.48 (controls 1 of 9).
Variant A40D+R60A+R99P showed 3.86, ND, ND (controls 1 of 9).
Variant Q96C+L100F showed ND, 1.14, ND (controls 0 of 9).
Variant K24L+Y31I+W56G showed -0.04, 0.38, 0.11 (mean 0.15; controls 0 of 9).
Variant S38N+A57N+P101N showed 5.15, ND, ND (controls 6 of 9).
Variant S25W+S38H+S62M showed 1.76, 1.74, 1.84 (mean 1.78; controls 0 of 9).
Variant L30N+R99D+L102G showed ND, 4.58, ND (controls 7 of 9).
Variant K24I+L100V+L102R showed ND, ND, ND (controls 2 of 9).
Variant N35D+Y97H+L102I showed ND, 2.29, ND (controls 2 of 9).
Variant V29R+N37Q+S58T showed 1.34, 2.19, 1.49 (mean 1.67; controls 0 of 9).
Variant E32S+K36H+V39W showed 3.85, 4.12, ND (mean 3.98; controls 6 of 9).
Variant L102T showed ND, ND, ND (controls 0 of 9).
Variant S25M+S33E+S103K showed 0.27, 0.61, 0.38 (mean 0.42; controls 4 of 9).
Variant V29Q+R60L+Q95K showed ND, ND, 6.07 (controls 6 of 9).
Variant L30N+S33E+N37G showed 0.36, 0.89, 0.77 (mean 0.67; controls 0 of 9).
Variant V29T+R34P+Q95G showed 2.43, ND, 3.33 (mean 2.88; controls 0 of 9).
Variant S28K+Q95M+L102Y showed ND, 3.42, ND (controls 0 of 9).
Variant S25N+A40H+E61C showed 4.80, ND, 4.82 (mean 4.81; controls 3 of 9).
Variant A40M+A57Y showed ND, ND, ND (controls 2 of 9).
Variant Q27L+V29Y+L102A showed 0.57, 0.84, 0.75 (mean 0.72; controls 2 of 9).
Variant L30G+N35H+L100V showed ND, ND, ND (controls 0 of 9).
Variant K36C+N37Q+T59M showed 2.05, 1.87, 2.66 (mean 2.19; controls 1 of 9).
Variant R34C+N35S+R99I showed ND, ND, ND (controls 1 of 9).
Variant Q95G+Y97D+S103D showed 1.94, 1.72, 2.73 (mean 2.13; controls 1 of 9).
Variant Q27P+E32R+V39K showed ND, ND, ND (controls 0 of 9).
Variant N35W+V39E+Q96L showed ND, 4.18, ND (controls 4 of 9).
Variant Q27M+N37V+S62R showed 3.42, 3.00, ND (mean 3.21; controls 3 of 9).
Variant S33F+Q96S+L102T showed 3.72, ND, ND (controls 2 of 9).
Variant S25Y+N35P+S58R showed 1.96, 1.77, 2.77 (mean 2.17; controls 2 of 9).
Variant W56G showed -0.08, 0.14, -0.07 (mean 0.00; controls 1 of 9).
Variant S25G+R60S+E61Y showed ND, ND, ND (controls 0 of 9).
Variant V29T+Y31K+L100N showed ND, ND, ND (controls 1 of 9).
Variant S58H+S62R showed 0.93, 1.22, 1.19 (mean 1.11; controls 2 of 9).

3 of these entries, quoted again:

changes,log10 Kd (nM) by replicate,"mean, log10 nM",control signals
S25Q+S28I+K36T,"ND, ND, ND",ND,1/9
V29R+N37Q+S58T,"1.34, 2.19, 1.49",1.67,0/9
K24A+E32I+Q96N,"ND, ND, ND",ND,1/9